Where “and” joins values, the source holds several entries; their conditions need not be identical. Equal entries are not always repeated.
Key:
[1] = biological target: SRSF protein kinase 2 (Homo sapiens, UniProt P78362)
[2] = biological target: SRSF protein kinase 1 (Homo sapiens, UniProt Q96SB4)

Sequences of proteins named here, by UniProt entry; tags and fusion partners are left off.
UniProt P78362, whole entry: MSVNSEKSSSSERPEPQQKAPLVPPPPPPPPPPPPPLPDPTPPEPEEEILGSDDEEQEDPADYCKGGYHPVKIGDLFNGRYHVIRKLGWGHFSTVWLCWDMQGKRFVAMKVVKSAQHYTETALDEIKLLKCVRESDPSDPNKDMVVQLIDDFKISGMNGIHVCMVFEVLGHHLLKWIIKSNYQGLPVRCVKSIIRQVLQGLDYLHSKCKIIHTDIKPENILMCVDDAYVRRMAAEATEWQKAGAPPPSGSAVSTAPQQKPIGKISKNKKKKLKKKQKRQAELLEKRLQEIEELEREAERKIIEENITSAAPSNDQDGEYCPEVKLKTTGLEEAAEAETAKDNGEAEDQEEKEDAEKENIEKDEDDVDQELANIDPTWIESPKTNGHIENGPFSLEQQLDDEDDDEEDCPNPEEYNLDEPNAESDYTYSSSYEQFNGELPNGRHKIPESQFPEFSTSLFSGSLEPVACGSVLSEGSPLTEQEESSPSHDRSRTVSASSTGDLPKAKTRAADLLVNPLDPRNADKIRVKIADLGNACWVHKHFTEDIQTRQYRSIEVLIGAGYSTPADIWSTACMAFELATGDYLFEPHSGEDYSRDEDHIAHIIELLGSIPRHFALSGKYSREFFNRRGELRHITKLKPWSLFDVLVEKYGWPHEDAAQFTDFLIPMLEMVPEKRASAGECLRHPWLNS
UniProt Q96SB4, whole entry: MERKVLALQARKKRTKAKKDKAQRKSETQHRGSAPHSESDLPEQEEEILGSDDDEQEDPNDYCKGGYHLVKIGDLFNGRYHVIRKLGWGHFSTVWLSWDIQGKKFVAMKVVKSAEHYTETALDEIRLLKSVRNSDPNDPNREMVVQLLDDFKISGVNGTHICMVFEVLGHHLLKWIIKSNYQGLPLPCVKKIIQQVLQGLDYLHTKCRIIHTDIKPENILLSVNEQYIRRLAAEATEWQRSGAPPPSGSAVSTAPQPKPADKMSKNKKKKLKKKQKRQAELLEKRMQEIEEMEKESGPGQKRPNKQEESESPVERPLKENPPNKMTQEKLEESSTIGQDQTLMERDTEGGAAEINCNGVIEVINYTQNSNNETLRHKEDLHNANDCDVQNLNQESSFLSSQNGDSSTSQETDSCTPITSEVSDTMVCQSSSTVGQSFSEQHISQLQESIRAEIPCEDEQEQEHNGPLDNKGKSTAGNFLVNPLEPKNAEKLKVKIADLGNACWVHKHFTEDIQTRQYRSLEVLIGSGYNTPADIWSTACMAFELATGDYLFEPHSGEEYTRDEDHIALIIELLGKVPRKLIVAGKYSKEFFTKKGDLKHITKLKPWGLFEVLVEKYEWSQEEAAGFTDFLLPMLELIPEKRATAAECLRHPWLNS

SMILES: CN(c1ncccc1CNc1ccnc(-c2nc3c(F)c(Cl)ccc3[nH]2)n1)S(C)(=O)=O
- IC50 [1]: 0.149 µM
- IC50 [2]: 0.098 µM and 0.044 µM

— ChEMBL document CHEMBL5058541 (2022)
